# High-throughput results from PubChem BioAssay.
# Rce1 inhib = yeast Rce1p protease inhibitors, primary screen, biochemical, fluorescence, cell-free homogeneous. calls only. AID 2563, 2010. CAAX prenyl protease 2 (Saccharomyces cerevisiae (strain ATCC 204508 / S288c)), Q03530. hit rate 0.27% among 290,000. yeast membranes, quenched prenylated peptide cleavage fluorescence;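 active = fall in fluorescence gain of 50% or more versus controls, with final raw signal at or below 3038400; inconclusive = same 50% fall but final raw signal above 3038400; inactive = fall in fluorescence gain under 50%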;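 also: plate controls were neutral control wells for no effect and wells lacking membranes for full effect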
# DSG3 Ab inh = inhibitors of pemphigus antibody binding to DSG3, primary screen, biochemical, bead-based, flow cytometry, scFv-GFP; Desmoglein-3 (Homo sapiens), P32926; DSG3-coupled beads, scFv-anti-DSG3-GFP binding; hits give low values; binding (percent of control), % at 10 µM; hit rate 0.48% among 310,000; AID 588358, 2011;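 active = binding more than 3 SD below its plate's average and above zero; inconclusive = below that plate limit but binding exactly zero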;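 also: hits lower antibody fragment binding to DSG3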
# Arrestin-AP2 inh = inhibitors of beta-arrestin/AP2 binding, primary screen, biochemical, GPCR trafficking, flow cytometry | hit rate 0.31% among 340,000 | AID 504490, 2011 | FITC-arrestin peptide / GST-AP2 beads; AP2 beta2 appendage carries R879A mutation | inhibition, % at 10 µM | beta-arrestin 1 C-terminal peptide binding to AP2 beta2-adaptin appendage (human);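 active = inhibition above a set limit, near 3 SD of compounds lacking own fluorescence, cut at about 54% in these data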;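 also: plate controls were DMSO wells for no effect and 5 µM unlabelled arrestin peptide for full effect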
#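 test system = AP2 appendage R879A on GSH beads | buffer or medium = PBS plus Tween 20 (0.05%) and BSA (0.1%) | incubation = 12 min plus 1 h, RT | detection = bead flow cytometry, FITC channel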
# Yeast UUG start = modulators of start codon recognition fidelity in yeast; AID 602363; hit rate 0.13% among 350,000; activity score, % at 18.7 µM; S. cerevisiae UUG-firefly luciferase reporter, luminescence/redox ratio;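 active = replicate mean at a twofold rise or more, about +100% in these data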;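 note: firefly luciferase made from a UUG start codon reports start codon fidelity; reporter light over untreated wells divided by growth signal over untreated wells; some hits fall short of that in this replicate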
# Tb MetRS inh = T. brucei MetRS inhibitors, primary screen, biochemical, luminescence. purified T. brucei MetRS, ATP depletion, Kinase-Glo luminescence. inhibition, % at 11.9 µM. hit rate 0.4% among 360,000. AID 624268, 2012;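 active = inhibition above a per-plate cutoff of the control wells' mean inhibition plus 3 SD, cut at about 5.5% in these data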;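 also: 0% = DMSO wells median and 100% = median of wells with control inhibitor compound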
#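 System: purified T. brucei MetRS enzyme / Detection: Kinase-Glo luciferase luminescence reporting remaining unconsumed ATP / Medium: HEPES buffer with MgCl2, KCl, DTT, spermine, BSA, pyrophosphatase / Replication: singlicate, one well per compound / Evaluation: percent inhibition relative to median high and low control wells / Schedule: 2 h aminoacylation at 25 °C after 15 min preincubation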
# Arr-AP2 CP1 = inhibitors of arrestin peptide binding to AP2, confirmation, biochemical, cherry pick 1, flow cytometry beads | inhibition, % at 10 µM | hit rate 2% among 1,300 | GST-AP2 beads, FITC arrestin peptide binding; GST-fused beta2-adaptin appendage, R879A mutant | shares compounds with Arrestin-AP2 inh;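 active = inhibition above a set limit, roughly 3 SD of non-fluorescent compound noise, cut at about 38% in these data; inactive = inhibition at or below that limit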;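 also: loss of bead fluorescence from 50 nM FITC arrestin peptide bound to appendage; 0% = negative control wells and 100% = excess unlabelled arrestin peptide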
# GST GSH counter = GST-fluorescein capture on glutathione beads, confirmation, artefact control for arrestin-AP2 inhibitor project, biochemical, cherry pick 1, flow cytometry. inhibition, % at 10 µM. GST-fluorescein binding to GSH beads, fluorescence, counter-screen. hit rate 2% among 1,300. shares compounds with Arrestin-AP2 inh;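 active = inhibition above 50%, about 3 SD of the inhibition seen with non-fluorescent compounds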;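 also: fluorescein maleimide labelled GST captured on 4 micron glutathione beads; higher means more loss of bead fluorescence from quenching or blocked binding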
# * hit, by the source's call; i = inactive; u = inconclusive; x = no result. This is a sample that favours compounds with a hit; in the whole collection about 1.2% have one here.
SMILES,Rce1 inhib,DSG3 Ab inh,Arrestin-AP2 inh,Yeast UUG start,Tb MetRS inh,Arr-AP2 CP1,GST GSH counter
Cc1c(Cl)cccc1NC(=O)Nc1cccnc1,i,x,-11,-9,0,x,x
COc1ccc(OC)c(NC(=O)Nc2cccnc2)c1,i,116,-5,-9,0,x,x
COc1ccccc1NC(=O)Nc1cnccn1,i,90,17,x,-1,23,-1
COc1ccc(OC)c(NC(=O)Nc2cnccn2)c1,i,122,56*,-22,0,7,4
CC(C)NC(=O)N1[C@@H]2CN(C(=O)c3ccccc3F)c3ccccc3[C@@H]2[C@@H]1CO,x,x,x,-2,x,x,x
C[C@@H]1CCCCO[C@H](CN(C)C(=O)c2ccncc2)[C@H](C)CN([C@@H](C)CO)C(=O)c2cc(NC(=O)NC3CCCCC3)ccc2O1,x,x,x,5,x,x,x
C[C@@H]1CCCCO[C@H](CN(C)Cc2ccc(C(=O)O)cc2)[C@H](C)CN([C@@H](C)CO)C(=O)c2cc(NC(=O)Nc3ccccc3)ccc2O1,x,x,x,-6,x,x,x
C[C@@H]1CN([C@@H](C)CO)C(=O)c2cc(NC(=O)Cc3cn(C)c4ccccc34)ccc2O[C@@H]1CN(C)S(=O)(=O)c1cn(C)cn1,x,x,x,-4,x,x,x
C[C@H]1CN([C@@H](C)CO)C(=O)c2cc(NC(=O)NC3CCCCC3)ccc2O[C@H]1CN(C)Cc1ccncc1,x,x,x,-4,x,x,x
Cc1noc(C)c1S(=O)(=O)Nc1ccc2c(c1)C(=O)N([C@H](C)CO)C[C@H](C)[C@@H](CN(C)S(=O)(=O)c1ccc(Cl)cc1)O2,x,x,x,-5,x,x,x
O=C1C2C3C=CC(c4ccccc4)(C2C(=O)N1c1cccc(Cl)c1)C1C(=O)N(c2cccc(Cl)c2)C(=O)C31 (stereo not given),i,100,61*,1,-1,5,-8
CC(C)NC(=O)Nc1ccc2c(c1)C(=O)N(C)[C@@H]1CC[C@H](CC(=O)NC3CCCCC3)O[C@H]1CO2,x,x,x,19,x,x,x
O=C(NCCc1ccccn1)c1ccc(OC2CCN(Cc3ccccn3)CC2)cc1,i,u,-7,-18,0,x,x
CC(Cc1ccccn1)NC(=O)c1ccc(OC2CCN(Cc3ccccn3)CC2)cc1 (stereo not given),i,111,62*,-4,0,11,1
CC1C(c2ccccc2)=[N+]([O-])C2(CCCCC2)N1O (stereo not given),i,94,74*,-13,-1,-9,-6
Cc1noc(C)c1NC(=O)Nc1ccc2c(c1)C(=O)N([C@H](C)CO)C[C@@H](C)[C@H](CN(C)Cc1ccc(C(F)(F)F)cc1)OCCCC[C@H](C)O2,x,x,x,-1,x,x,x
COc1cc(C(=O)OCCNC(=O)c2cccnc2)cc(OC)c1OC,x,94,58*,0,0,-3,-12
C[C@H](CO)N1C[C@H](C)[C@H](CN(C)C)Oc2cc(-c3cccnc3)ccc2S1(=O)=O,x,x,x,-16,x,x,x
CCOc1ccc(-c2nc(CSCC(=O)NC3CC3)c(C)o2)cc1,i,104,-2,-15,1,x,x
CCOc1ccc(-c2nc(CSCC(=O)NCc3ccco3)c(C)o2)cc1,i,97,98*,-14,0,5,-7
CCn1nnnc1NCc1ccc(Cl)cc1,i,113,19,-7,0,x,x
Cn1nnnc1NCc1ccc(Cl)cc1,i,94,57*,x,0,-1,-10
C[C@H](O)C#Cc1cnc2c(c1)C(=O)N([C@H](C)CO)C[C@H](C)[C@H](CN(C)C(=O)c1ccccc1)O2,x,x,x,-4,x,x,x
O=c1c(Cc2c(F)cccc2Cl)c(O)ccn1Cc1ccc(F)cc1,i,95,12,x,0,x,x
O=c1c(Cc2c(F)cccc2Cl)c(O)ccn1CCCn1ccnc1,i,93,63*,x,0,-3,-7

# Part of the list above in order of SMILES length, highest first:
SMILES,Rce1 inhib,DSG3 Ab inh,Arrestin-AP2 inh,Yeast UUG start,Tb MetRS inh,Arr-AP2 CP1,GST GSH counter
Cc1noc(C)c1NC(=O)Nc1ccc2c(c1)C(=O)N([C@H](C)CO)C[C@@H](C)[C@H](CN(C)Cc1ccc(C(F)(F)F)cc1)OCCCC[C@H](C)O2,x,x,x,-1,x,x,x
C[C@@H]1CCCCO[C@H](CN(C)C(=O)c2ccncc2)[C@H](C)CN([C@@H](C)CO)C(=O)c2cc(NC(=O)NC3CCCCC3)ccc2O1,x,x,x,5,x,x,x
C[C@H](O)C#Cc1cnc2c(c1)C(=O)N([C@H](C)CO)C[C@H](C)[C@H](CN(C)C(=O)c1ccccc1)O2,x,x,x,-4,x,x,x

# Next section:
SMILES,Rce1 inhib,DSG3 Ab inh,Arrestin-AP2 inh,Yeast UUG start,Tb MetRS inh,Arr-AP2 CP1,GST GSH counter
O=C(N/N=C/c1ccco1)c1cc(-c2ccc3ccccc3c2)n[nH]1,i,109,56*,-14,-1,5,-11
Cc1cc(N/N=C/c2cccc(Br)c2)nc2ccccc12,i,99,57*,-8,-1,5,0
CCC(=O)Nc1ccc(C(=O)c2ccccc2)cc1,i,99,84*,-8,0,-1,-13
Nc1ncc(Br)cc1S(=O)(=O)Nc1ccccc1F,i,x,58*,-12,0,3,-11
CCN(Cc1ccccc1)C(=O)CCNS(=O)(=O)c1cc(Br)cnc1N,i,96,41,2,0,x,x
O=C(CN1C(=O)COc2ccc(Cl)cc21)N1CCCCC1,i,x,55*,-10,-1,2,-6
C[C@H]1CN([C@@H](C)CO)S(=O)(=O)c2ccc(-c3ccccc3)cc2O[C@H]1CN(C)C(=O)Nc1ccccc1F,x,x,x,-16,x,x,x
C[C@H]1CCCCO[C@H](CN(C)C(=O)Cc2ccccc2)[C@@H](C)CN([C@@H](C)CO)C(=O)c2cc(NC(=O)Nc3ccc4c(c3)OCO4)ccc2O1,x,x,x,-20,x,x,x
COc1ccc(S(=O)(=O)N(C)C[C@@H]2Oc3ccc(NS(=O)(=O)c4c(C)noc4C)cc3CC(=O)N([C@H](C)CO)C[C@H]2C)cc1,x,x,x,17,x,x,x
CC1(C)CC2(CCO1)N1CC3(C)CN2CC(C)(C1)C3=O (stereo not given),i,95,84*,x,0,-1,-3
C[C@@H]1CCCCO[C@@H](CN(C)Cc2ccc(Cl)c(Cl)c2)[C@@H](C)CN([C@H](C)CO)C(=O)c2cc(NS(=O)(=O)c3cn(C)cn3)ccc2O1,x,x,x,-2,x,x,x
Cc1ccc(CNC(=O)CCS(=O)(=O)c2ccc(C)cc2)cc1,i,109,70*,-2,0,-3,-5
C[C@@H]1CCCCO[C@H](CN(C)C(=O)Nc2ccccc2)[C@H](C)CN([C@@H](C)CO)C(=O)c2cc(NC(=O)c3ccncc3)ccc2O1,x,x,x,3,x,x,x
COc1ccc(OC)c(NC(=O)CCC(=O)N(Cc2ccc(OC)c(OC)c2)c2nccs2)c1,i,107,2,x,-1,x,x
COc1ccc(NC(=O)CCC(=O)N(Cc2ccc(OC)c(OC)c2)c2nccs2)c(OC)c1,i,111,56*,x,-1,-1,-3

# Molecules from the list above containing a furan ring, fused or not (two):
SMILES,Rce1 inhib,DSG3 Ab inh,Arrestin-AP2 inh,Yeast UUG start,Tb MetRS inh,Arr-AP2 CP1,GST GSH counter
CCOc1ccc(-c2nc(CSCC(=O)NCc3ccco3)c(C)o2)cc1,i,97,98*,-14,0,5,-7
O=C(N/N=C/c1ccco1)c1cc(-c2ccc3ccccc3c2)n[nH]1,i,109,56*,-14,-1,5,-11
